Experimental findings from article PMC8807614 (Scientific Reports, 2022) are described below.

The assay addresses T1, human prolactin releasing peptide receptor (GPR10) (Homo sapiens, UniProt P49683).
T1 sequence (P49683 1-370): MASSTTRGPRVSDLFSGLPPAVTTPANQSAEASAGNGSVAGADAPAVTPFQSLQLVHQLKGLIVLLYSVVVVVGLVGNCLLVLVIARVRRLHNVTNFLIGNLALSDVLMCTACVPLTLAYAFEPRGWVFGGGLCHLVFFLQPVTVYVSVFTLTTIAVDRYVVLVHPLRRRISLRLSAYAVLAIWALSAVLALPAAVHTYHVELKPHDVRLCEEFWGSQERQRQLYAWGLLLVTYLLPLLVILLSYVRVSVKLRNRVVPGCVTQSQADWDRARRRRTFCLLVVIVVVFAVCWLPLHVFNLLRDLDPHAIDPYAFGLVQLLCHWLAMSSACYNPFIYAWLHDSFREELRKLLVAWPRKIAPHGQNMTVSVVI
As to the kind of experiment: GPR10 functional activity assay (IP1, HTRF). Format: cell-based. The note with it: Chem-1 cells stably expressing human GPR10, 10.000 cells/well; HTRF IP1 (CisBio); 30 min at 37 °C; IP1 stimulation buffer with 0.05% casein; 11 concentrations. The protocol: Figure 3 GPR10 and NPFF2R profiling of in vivo metabolites of GUB03385. (a) IP1 measurement in human GPR10 Chem 1 cells (HTRF technology, CisBio) after 30 min. incubation at 37 °C with metabolites and the native peptide PrRP31. (b) cAMP measurements in human NPFF2R CHO-K cells (HTRF technology, CisBio) at a fixed concentration of 3 µM forskolin after 30 min. incubation at room temperature with metabolites and the native peptide NPSF. Representative curves of three determinations.
The Homogenous Time Resolved Fluorescence (HTRF) technology optimized for Gq coupled receptors has thoroughly been described in the CisBio IP1 kit manual (#62IPAPEC) and in the cAMP assay kit manual for Gi coupled receptors (#62AM9PEC). […] After addition of HTRF® detection reagents and incubation with shaking (2400 rpm) for one hour at room temperature signals at 620 and 665 nm (raw counts: ratio of 665/620) were detected at a ClarioStar plate reader (BMG Labtech, Ortenberg, Germany). Concentration–response evaluation of compounds was performed with 11 concentrations of agonist peptides (covering 3 decades) and EC50 values were calculated by nonlinear regression using sigmoid concentration–response with variable slope. Data were analysed using GraphPad v9.1 software (GraphPad, La Jolla, CA).
For orientation: In TR-FRET formats the signal depends on donor and acceptor labels being close together.

The EC50 is the midpoint of the concentration-response curve. In the case of `CC[C@H](C)[C@H](NC(=O)CNC(=O)[C@H](CCCNC(=N)N)NC(=O)[C@H](CO)NC(=O)[C@H](C)NC(=O)[C@H](Cc1ccc(O)cc1)NC(=O)[C@H](Cc1c[nH]c2ccccc12)NC(=O)[C@H](C)NC(=O)[C@@H]1CCCN1C(=O)[C@H](CC(N)=O)NC(=O)[C@@H](NC(=O)[C@H](CC(=O)O)NC(=O)[C@@H]1CCCN1C(=O)[C@@H](NC(=O)[C@H](CCCNC(=N)N)NC(=O)[C@@H](NC(=O)[C@H](CCC(=O)O)NC(=O)[C@H](CCSC)NC(=O)[C@H](CO)NC(=O)[C@H](Cc1c[nH]cn1)NC(=O)[C@H](CCCNC(=N)N)NC(=O)[C@H](Cc1c[nH]cn1)NC(=O)[C@@H](NC(=O)[C@H](CCCNC(=N)N)NC(=O)[C@@H](N)CO)[C@@H](C)O)[C@@H](C)CC)[C@@H](C)O)[C@@H](C)CC)C(=O)N[C@@H](CCCNC(=N)N)C(=O)N1CCC[C@H]1C(=O)N[C@H](C(=O)NCC(=O)N[C@@H](CCCNC(=N)N)C(=O)N[C@@H](Cc1ccccc1)C(N)=O)C(C)C` [PrRP31], the EC50 came to 0.2 nM.
